Test results reported in PMC8292404, “Phase 1b/2 trial of tepotinib in sorafenib pretreated advanced hepatocellular carcinoma with MET overexpression” (British Journal of Cancer, 2021).
“And” between values parts separate entries of the source, which are not always exact repeats. Identical values can stand only once.

Assays:
[1] = test system: sorafenib pretreated aHCC with MET overexpression; assay: Phase 2: progression-free survival, response, TTP, OS, AFP response; assay type: in vivo, human
Experimental: (§1) Additional patients were enrolled at the RP2D.
In both phases, tumour assessments were performed per RECIST v1.1 and modified RECIST[29] v1.1 on Day 1 of every second cycle from Cycle 3 to 13, and Day 1 of every fourth cycle thereafter. Exploratory endpoints included biomarkers of MET pathway activity (including MET amplification status).
For the Phase 2 primary endpoint, the null hypothesis that the 12-week progression-free rate is ≤15% (based on historical data)[23] was tested against a one-sided alternative hypothesis that the 12-week progression-free rate is 30%, using a binomial exact test with an α value of 0.05. A sample size of 48 patients was required to achieve a power of at least 80%.
Tumour response (best overall response, ORR, DCR) and biological response were summarised, along with corresponding two-sided exact Clopper–Pearson 90% confidence intervals (CIs). Kaplan–Meier estimates of median PFS, TTP, time to symptomatic progression and OS are presented, along with 90% CIs (calculated using the two-sided exact Clopper–Pearson method). All statistical analyses were performed using SAS® Software version 9.4 (Statistical Analysis System, SAS-Institute, Cary, North Carolina, US).

[2] = test system: patients with sorafenib pretreated aHCC with MET overexpression; assay: Phase 2: adverse events (NCI CTCAE v4.0)
Description: In both study phases, eligible patients were ≥18 years old with aHCC, Child–Pugh Class A liver function score, Eastern Cooperative Oncology Group performance status 0 or 1, and measurable disease defined by Response Evaluation Criteria In Solid Tumors (RECIST) v1.1. […] Exclusion criteria included any prior systemic anti-cancer treatment for aHCC (besides sorafenib) and presence of symptomatic or untreated brain metastases. Full inclusion and exclusion criteria are shown in Supplementary Table 1.
as §1
In Phase 2, the primary endpoint was progression-free survival (PFS) status after 12 weeks of treatment, as assessed by the investigator per RECIST v1.1. Secondary endpoints included TTP, time to symptomatic progression, objective response rate (ORR), disease control rate (DCR) (all investigator-assessed and per RECIST v1.1), PFS per modified RECIST v1.1 (investigator-assessed), OS and biological response (defined as a decrease in AFP >20%). As sensitivity analyses, PFS and TTP were also evaluated by independent review. Safety was assessed via reporting of adverse events (AEs), graded according to National Cancer Institute Common Terminology and Criteria for Adverse Events v4.0.
Continuous variables, including PK data, were summarised using descriptive statistics; qualitative variables were summarised by means of counts and percentages.

[3] = Phase 1b: pharmacokinetics at Cycle 1, Day 15; assay type: in vivo; conditions: HCC population Phase 1b versus first-in-human trial (ref 24)
Experimental: as §1
The primary endpoint in Phase 1b was incidence of dose-limiting toxicities (DLTs) during Cycle 1. Details of DLTs are defined in Supplementary Table 3. Pharmacokinetics (PK) endpoints, including Cmax, and area under the concentration–time curve over the dosing interval at steady state (AUCτ,ss), were evaluated at Cycle 1, Day 15 as a secondary endpoint in Phase 1b. Selected efficacy measures were evaluated as secondary endpoints in Phase 1b.

[4] = test system: aHCC with MET overexpression; design: method as in PMID 33972742; conditions: Asian patients, no prior systemic anti-cancer therapy; cited from earlier work
[5] = Phase 2, 49 patients, investigator-assessed
[6] = Phase 2, eight patients with MET IHC 3+
[7] = Phase 2, overall (n = 49), brackets 90% CI
[8] = Phase 2, six patients positive for MET amplification
[9] = investigator RECIST v1.1, Phase 2 500 mg/day (N = 49)
[10] = investigator mRECIST v1.1, Phase 2 500 mg/day (N = 49)

CN1CCC(COc2cnc(-c3cccc(Cn4nc(-c5cccc(C#N)c5)ccc4=O)c3)nc2)CC1 [tepotinib]
12-week PFS (patients progression-free at 12 weeks) ([1]; Phase 2, 500 mg QD, N = 49, investigator-assessed, RECIST v1.1, primary endpoint): 63.3%
investigator-assessed ORR ([1]; Phase 2, 4/49): 8.2%
biological response (decrease in AFP concentration of >20%) ([1]; Phase 2, 14 of 45 patients with baseline and post-baseline AFP): 31.1%
DCR ([1]; Phase 2, 28/49): 57.1%
patients who had died at the time of analysis ([1]; Phase 2, 40 of 49): 81.6%
PR [1, 5]: 6.1%
complete response (CR) [1, 5]: 2.0%
CR [1, 6]: 12.5%
DCR [1, 6]: 62.5%
Median PFS by independent review committee ([1]; Phase 2, overall): 3.2 months
median TTP by independent review committee ([1]; Phase 2, overall): 4.2 months
Median PFS, investigator-assessed [1, 7]: 3.4 months
Median investigator-assessed TTP [1, 7]: 4 months and 4.0 months
median OS [1, 7]: 5.6 months
CR [1, 8]: 16.7%
not evaluable [1, 8]: 16.7%
12-week PFS ([1]; Phase 2, two patients with AFP missing): 100%
Best overall response Not evaluable [1, 9]: 6 (12.2) n (%)
Best overall response PD [1, 9]: 15 (30.6) n (%)
Best overall response PR [1, 9]: 3 (6.1) n (%)
Best overall response SD [1, 9]: 24 (49.0) n (%)
Best overall response Non-CR/Non-PD [1, 10]: 7 (14.3) n (%)
Best overall response Not evaluable [1, 10]: 5 (10.2) n (%)
Best overall response PD [1, 10]: 13 (26.5) n (%)
Best overall response PR [1, 10]: 4 (8.2) n (%)
Best overall response SD [1, 10]: 19 (38.8) n (%)
Grade ≥3 treatment-related increased lipase ([2]; Phase 2): 6.1%
Grade ≥3 treatment-related peripheral oedema ([2]; Phase 2): 6.1%
ascites, AE of any cause ([2]; Phase 2, 500 mg QD): 34.7%
diarrhoea, AE of any cause ([2]; Phase 2, 500 mg QD): 32.7%
peripheral oedema, AE of any cause ([2]; Phase 2, 500 mg QD): 65.3%
patients with Grade ≥3 AEs of any cause ([2]; Phase 2, 500 mg QD, N = 49): 57.1%
patients with Grade ≥3 treatment-related AEs ([2]; Phase 2, 500 mg QD, N = 49): 28.6%
patients with an AE of any cause ([2]; Phase 2, 500 mg QD, N = 49): 98.0%
patients with treatment-related AEs ([2]; Phase 2, 500 mg QD, N = 49): 83.7%
treatment-related Ascites ([2]; Phase 2, Grade ≥3): 2 (4.1) n (%)
treatment-related Asthenia ([2]; Phase 2, Grade ≥3): 0 n (%)
treatment-related Blood creatinine increased ([2]; Phase 2, Grade ≥3): 1 (2.0) n (%)
treatment-related Decreased appetite ([2]; Phase 2, Grade ≥3): 0 n (%)
treatment-related Diarrhoea ([2]; Phase 2, Grade ≥3): 0 n (%)
treatment-related Fatigue ([2]; Phase 2, Grade ≥3): 0 n (%)
treatment-related Hypoalbuminaemia ([2]; Phase 2, Grade ≥3): 0 n (%)
treatment-related Lipase increased ([2]; Phase 2, Grade ≥3): 3 (6.1) n (%)
treatment-related Nausea ([2]; Phase 2, Grade ≥3): 0 n (%)
treatment-related Peripheral oedema ([2]; Phase 2, Grade ≥3): 3 (6.1) n (%)
treatment-related Pruritus ([2]; Phase 2, Grade ≥3): 0 n (%)
treatment-related Vomiting ([2]; Phase 2, Grade ≥3): 0 n (%)
≥1 adverse event of any cause ([2]; Phase 2, Grade ≥3): 28 (57.1) n (%)
≥1 treatment-related adverse event ([2]; Phase 2, Grade ≥3): 14 (28.6) n (%)
AEs of any cause that led to death ([2]; Phase 2, N = 49): 16.3%
permanently discontinued treatment due to AEs of any cause ([2]; Phase 2, N = 49): 34.7%
permanently discontinued treatment due to treatment-related AEs ([2]; Phase 2, N = 49): 16.3%
treatment-related Ascites ([2]; Phase 2, any grade): 6 (12.2) n (%)
treatment-related Asthenia ([2]; Phase 2, any grade): 11 (22.4) n (%)
treatment-related Blood creatinine increased ([2]; Phase 2, any grade): 3 (6.1) n (%)
treatment-related Decreased appetite ([2]; Phase 2, any grade): 4 (8.2) n (%)
treatment-related Diarrhoea ([2]; Phase 2, any grade): 8 (16.3) n (%)
treatment-related Fatigue ([2]; Phase 2, any grade): 9 (18.4) n (%)
treatment-related Hypoalbuminaemia ([2]; Phase 2, any grade): 5 (10.2) n (%)
treatment-related Lipase increased ([2]; Phase 2, any grade): 3 (6.1) n (%)
treatment-related Nausea ([2]; Phase 2, any grade): 7 (14.3) n (%)
treatment-related Peripheral oedema ([2]; Phase 2, any grade): 19 (38.8) n (%)
treatment-related Pruritus ([2]; Phase 2, any grade): 3 (6.1) n (%)
treatment-related Vomiting ([2]; Phase 2, any grade): 4 (8.2) n (%)
treatment-related asthenia ([2]; Phase 2, any grade): 22.4%
treatment-related diarrhoea ([2]; Phase 2, any grade): 16.3%
treatment-related fatigue ([2]; Phase 2, any grade): 18.4%
treatment-related nausea ([2]; Phase 2, any grade): 14.3%
treatment-related peripheral oedema ([2]; Phase 2, any grade): 38.8%
≥1 adverse event of any cause ([2]; Phase 2, any grade): 48 (98.0) n (%)
≥1 treatment-related adverse event ([2]; Phase 2, any grade): 41 (83.7) n (%)
AE leading to death deemed by the investigator related to study treatment ([2]; Phase 2, hypoglycaemic coma, patient with type 1 diabetes): one instance
AUCτ,ss relative to first-in-human trial in advanced solid tumours [3]: 47%
Cmax relative to first-in-human trial in advanced solid tumours [3]: 52%
time to progression (TTP) versus sorafenib [4]: significant increase
